Experimental data: PubChem BioAssay (Tox21)
“And” between values parts separate entries of the source, which are not always exact repeats. Equal values may be shown once. Only a part is listed here, and it is no random draw. Inconclusive results are not listed. The source made the active and inactive calls. The call rests on the fitted dose curve.

Assay: qHTS assay for small molecule agonists of the p53 signaling pathway - cell viability (AID 651633);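 further: p53RE-bla HCT reporter cells with a stable beta-lactamase p53 reporter; nearly all actives have a fitted effect of over 30% in size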
Settings: p53RE-bla HCT-116 viability, ATP luminescence, 16 h; at 39.1 µM (top of the series)
Description: National Center for Advancing Translational Sciences [NCATS]
NIH Chemical Genomics Center [NCGC]
U.S. Environmental Protection Agency [EPA]
National Institutes of Environmental Health Sciences [NIEHS]
National Toxicology Program [NTP]
U.S. Food and Drug Administration [FDA]
p53, a tumor suppressor protein, is activated following cellular insult, including DNA damage and other cellular stresses. The activation of p53 regulates cell fate by inducing DNA repair, cell cycle arrest, apoptosis, or cellular senescence. The activation of p53, therefore, is a good indicator of DNA damage and other cellular stresses. […] The activation of the reporter gene under culture conditions can be detected by fluorescence intensity. This cell line was used to screen the Tox21 compound library in a 1536-well plate format and to identify agonists that activate the p53 signaling pathway.
Tox21 Assay Protocol Summary:
The p53RE-bla cells were dispensed at 4,000 cells/5 ul/well in 1536-well black wall/clear bottom plates using a Multidrop dispenser. After the assay plates were incubated at a 37 C/5% CO2 incubator for 5 hours, 23 nL of compounds dissolved in DMSO, positive controls or DMSO only was transferred to the assay plate by a pin tool. The plates were incubated at 37 C for 16 hours. After 1 uL of LiveBLAzerTM B/G FRET substrate was added using a Flying Reagent Dispenser, the plates were incubated at room temperature for 2 hours, and fluorescence intensity was measured by an Envision plate reader.
For cell viability readout that measures cytotoxicity, 4 ul/well of CellTiter-Glo reagent was added into the assay plates using a Flying Reagent Dispenser. After 30 min incubation at room temperature, the luminescence intensity in the plates was measured using a ViewLux plate reader.
On the % scale 0 is the no-effect control and ±100 the full control effect.

**Q.** With `C/C1=C2N=C(/C=C3N=C(/C(C)=C4\[N-][C@@](C)([C@@H]5N=C1[C@](C)(CCC(=O)NC[C@@H](C)OP(=O)([O-])O[C@H]1[C@@H](O)[C@@H](n6cnc7cc(C)c(C)cc76)O[C@@H]1CO)[C@H]5CC(N)=O)[C@@](C)(CC(N)=O)[C@@H]4CCC(N)=O)[C@@](C)(CC(N)=O)[C@@H]\3CCC(N)=O)C(C)(C)[C@@H]/2CCC(N)=O.[C-]#N.[Co+3]` as the compound, how does the activity change, negative = cytotoxicity read?
**A.** inactive: -4.9%

Same assay, conditions: p53RE-bla HCT-116 viability, ATP luminescence, 16 h; at 83.3 µM (top of the series)

**Q.** For `Cc1ccc([N+](=O)[O-])cc1[N+](=O)[O-]`, which activity change, negative = cytotoxicity is on record?
**A.** inactive: 15.6% and inactive: -10.8%

**Q.** Which activity change, negative = cytotoxicity does the source give for `CCOP(=O)(CC)OCC` here?
**A.** inactive: -12.9%

**Q.** With `CC(C)OP(=O)(F)OC(C)C` as the compound, how does the activity change, negative = cytotoxicity read?
**A.** inactive: -7.18%

**Q.** For `CC(C)OP(C)(=O)OC(C)C`, which activity change, negative = cytotoxicity is on record?
**A.** inactive: 11% and inactive: 8.52%

**Q.** Which activity change, negative = cytotoxicity does the source give for `COP(C)(=O)OC` here?
**A.** inactive: 13%

**Q.** Which activity change, negative = cytotoxicity does the source give for `O=[N+]([O-])c1cccc([N+](=O)[O-])c1` here?
**A.** inactive: -11.1%

**Q.** For `O=[N+]([O-])[O-].[NH4+]`, which activity change, negative = cytotoxicity is on record?
**A.** inactive: 15.3% and inactive: 14.2% and inactive: 10.5%

**Q.** For `CC(C)N(CCCl)C(C)C`, which activity change, negative = cytotoxicity is on record?
**A.** inactive: 20%

**Q.** For `OCCSCCO`, which activity change, negative = cytotoxicity is on record?
**A.** inactive: 15%

**Q.** With `CC(C)N(CCO)C(C)C` as the compound, how does the activity change, negative = cytotoxicity read?
**A.** inactive: 15.1%

**Q.** With `CN(C)CCS` as the compound, how does the activity change, negative = cytotoxicity read?
**A.** inactive: 9.42%

**Q.** With `CP(=O)(O)OCCC[Si](O)(O)O` as the compound, how does the activity change, negative = cytotoxicity read?
**A.** inactive: 10%

**Q.** For `Cc1ccc([N+](=O)[O-])c([N+](=O)[O-])c1`, which activity change, negative = cytotoxicity is on record?
**A.** inactive: 14.4%

**Q.** For `Cc1c([N+](=O)[O-])cccc1[N+](=O)[O-]`, which activity change, negative = cytotoxicity is on record?
**A.** inactive: 20.1% and inactive: -13.4%

**Q.** With `COc1ccc([N+](=O)[O-])cc1[N+](=O)[O-]` as the compound, how does the activity change, negative = cytotoxicity read?
**A.** inactive: -14.1%

**Q.** With `Cc1cccc([N+](=O)[O-])c1[N+](=O)[O-]` as the compound, how does the activity change, negative = cytotoxicity read?
**A.** inactive: -2.51%

**Q.** For `O=[N+]([O-])OCC(CO[N+](=O)[O-])(CO[N+](=O)[O-])CO[N+](=O)[O-]`, which activity change, negative = cytotoxicity is on record?
**A.** inactive: -22.6% and inactive: -13.9%

Same assay, conditions: p53RE-bla HCT-116 viability, ATP luminescence, 16 h; at 95.3 µM (top of the series)

**Q.** Which activity change, negative = cytotoxicity does the source give for `N=C(N)N[N+](=O)[O-]` here?
**A.** inactive: 15.3%

**Q.** For `CCN(CC)CCCl`, which activity change, negative = cytotoxicity is on record?
**A.** inactive: 7.96%

**Q.** With `COP(C)(=O)OC` as the compound, how does the activity change, negative = cytotoxicity read?
**A.** inactive: -14.3%

**Q.** For `O=[N+]([O-])c1cccc([N+](=O)[O-])c1`, which activity change, negative = cytotoxicity is on record?
**A.** inactive: -23.1%

**Q.** With `OCCSCCO` as the compound, how does the activity change, negative = cytotoxicity read?
**A.** inactive: -7.76%

**Q.** For `Cc1ccc([N+](=O)[O-])c([N+](=O)[O-])c1`, which activity change, negative = cytotoxicity is on record?
**A.** inactive: -29%

**Q.** With `Nc1cc([N+](=O)[O-])cc([N+](=O)[O-])c1O` as the compound, how does the activity change, negative = cytotoxicity read?
**A.** inactive: -10.9%
